These are literature values, as cited in publication PMC4844575, “The influence of different metal-chelate conjugates of pentixafor on the CXCR4 affinity” (EJNMMI Research, 2016).

This series has as its system OH1 human small cell lung cancer tumor-bearing mice. The note with it: cited from earlier work.

With “cyclo(-D-Tyr-N-Me-D-Orn(aminomethylbenzoyl (AMB)-DOTA)-L-Arg-L-2-Nal-Gly-) [[^68Ga]pentixafor]”, for the setting “1 h p.i.”, the “activity in the blood” value is listed as 1.08 % ± 0.27. The “uptake in CXCR4-expressing tissue (tumor)” value (2 h p.i.) was 4.63 % ± 1.54.
